Experimental data published in patent US20070054899A1 (priority 2003, published 2007).

Sequences of proteins named here, by UniProt entry; tags and fusion partners are left off. A change or cut given only in a name is not applied to a line headed by its entry.
UniProt O46512: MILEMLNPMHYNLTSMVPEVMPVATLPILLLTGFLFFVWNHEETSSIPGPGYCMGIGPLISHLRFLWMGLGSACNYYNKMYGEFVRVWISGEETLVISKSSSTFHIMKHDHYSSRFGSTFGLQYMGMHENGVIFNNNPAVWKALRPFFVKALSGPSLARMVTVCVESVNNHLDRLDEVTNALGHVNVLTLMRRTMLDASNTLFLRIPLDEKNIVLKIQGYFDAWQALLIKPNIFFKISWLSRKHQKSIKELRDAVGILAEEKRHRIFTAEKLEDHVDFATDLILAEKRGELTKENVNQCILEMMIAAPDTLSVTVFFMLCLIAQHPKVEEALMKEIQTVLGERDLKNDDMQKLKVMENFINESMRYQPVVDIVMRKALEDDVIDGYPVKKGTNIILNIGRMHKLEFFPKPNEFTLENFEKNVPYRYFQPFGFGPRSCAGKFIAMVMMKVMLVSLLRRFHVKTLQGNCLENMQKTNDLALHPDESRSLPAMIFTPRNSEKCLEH

Target: aromatase (e) (UniProt O46512)
Assay type: biochemical
Conditions: read-out: Activity In vitro IC50(nM), (e)
Experimental: The IC50, concentrations inhibiting 50% of the activity of the enzyme, were determined using microsomes from the human placenta as source of the enzyme according to the tritiated water method described by PURBA et al (1990).

- IC50: 260 nM
Structure (SMILES): N#Cc1ccc(C2CCCc3cncn32)cc1 (stereo not shown) [(s)-Fadrozole, reference compound]
